Laboratory results: patent publication US20230258624A1, “Ex vivo tumour immune microenvironment model, a method for preserving a tumour-specific immune cell profile in an ex vivo tumour immune microenvironment model and use of nanofibrillar cellulose” (UPM-Kymmene Corporation, priority 2022, published 2023)

Legend:
[1] = system: patient-derived breast cancer explant cultures (PDECs); assay type: cell-based, human
Description: Primary breast cancer tissue was processed into small explants (previously described in Haikala et al. (Pharmacological reactivation of MYC-dependent apoptosis induces susceptibility to anti-PD-1 immunotherapy, Nature Communications, 2019, 10:620; https://www.nature.com/articles/s41467-019-08541-2) and embedded in 3D matrices. In total 40 μl of matrix, forming a dome, per well was cultured in 500 μl of MammoCult growth media (STEMCELL, #05620) in ex vivo for 7 days on an 8-well chamber slides (Thermo Fisher Scientific, 177402). The tested 3D matrices were following: NFC (1.0%/0.3%), ANFC (0.7%/0.3%) and ANFC-A (0.7%/0.3%), and as a control undiluted Matrigel. The Matrigel was used as 40 μl of matrix together with 500 μl of MammoCult growth media in a well. The NFCs were diluted to the desired concentrations according to the manufacturer's instructions. ANFC-A was functionalized with human recombinant biotinylated IL-2 (2 ng/ml) (BT202-025/CF, R&D Systems). 50 μl of IL-2 diluted in 1×PBS was mixed with 300 μl (0.3%) or 700 μl (0.7%) of NFC and incubated for 1 hour at RT. Functionalized matrix was mixed with culture media to adjust the correct concentrations (550 μl for 0.3% and 150 μl for 0.7%). […]
The effects of the 3D culturing on explant viability, proliferation and apoptosis, was analyzed with immunofluorescent staining. […]

[2] = system: peripheral blood mononuclear cells (PBMC); assay: Flow cytometry of PBMCs grown in matrices for 5 days; assay type: cell-based, human
Description: Buffy coat from one donor was obtained from FRC blood service, Helsinki. Human peripheral blood mononuclear cells were isolated with Ficol-Paque density centrifugation and stored at −145° C. Cells were quickly thawed and mixed with diluted NFC so that one 8-well chamber slides well contained 2 million cells in 40 μl of matrix. 500 μl of media was added on top, and when media was replenished at the day 3, sample was collected for cytokine profiling. At day 5 the growth media was collected for cytokine profiling, and 3D culture was further processed for flow cytometry analysis. In addition to 3D culture, 2 million PBMCs were cultured as a floating culture, where cells were added on a low adhesion 6-well plate in 2 ml of growth media, with or without IL-2 supplementation (2 ng/ml). In floating culture, media was not changed during 5 days of culture.
NFC-grown PBMCs were stained for immunophenotyping by flow cytometry with lymphocyte and macrophage panel antibodies. […]
This amount of enzyme could dissociate the NFC efficiently in 1 hour, without harming the cells. […] SYTOX green dead cell marker (Thermo Fisher Scientific, S34860) and Countbright Absolute counting beads (Invitrogen, C36950) were added to sample tubes and the cell counts were normalized to beads counted during the sample acquisition performed with BD FACS Aria II (BD Biosciences). […] The data were analyzed with FlowJo version 10.7. […]

## IL-2: human recombinant biotinylated interleukin-2 (BT202-025/CF, R&D Systems) used to functionalize ANFC-A
[1]
  adverse effects on epithelial cell viability: not observed to have any adverse effects
[2]; IL-2 functionalization of the matrix
  effect on NK, NKT, and CD14− monocytes: positive effect
[2]; IL-2 supplementation (functionalization)
  effect on CD14+ monocytes: negative effect
